## scFv variants of Ab-14 (light chain) against a SARS-CoV-2 spike peptide

Antigen: PDVDLGDISGINAS, a 14-residue peptide of the SARS-CoV-2 spike HR2 region.

Each scFv is VH, a (GGGGS)3 linker, VL, as in the parent Ab-14, and differs from it in the CDRs of the light chain only.
VH: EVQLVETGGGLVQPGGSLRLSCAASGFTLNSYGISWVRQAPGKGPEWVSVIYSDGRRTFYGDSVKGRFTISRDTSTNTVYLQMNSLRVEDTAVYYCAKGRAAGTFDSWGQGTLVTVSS
VL: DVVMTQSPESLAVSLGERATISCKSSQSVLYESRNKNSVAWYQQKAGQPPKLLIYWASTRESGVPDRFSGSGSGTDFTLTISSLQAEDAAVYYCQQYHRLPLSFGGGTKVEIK

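Library AAYL50 holds single substitutions and randomly drawn double and triple substitutions in the CDRs. The scFvs were displayed on barcoded MATa yeast, the peptide on MATalpha yeast. After mating in shaken culture at 30 °C for 16 h, diploids were selected and their barcode pairs sequenced. The ratio of observed to expected reads was calibrated, replicate by replicate, on BCL2-family standards whose Kd was known from biolayer interferometry. There are three technical replicates.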

Substitutions are numbered in sequence along the VL above, starting at 1 (not Kabat). Values are log10 of the apparent Kd in nM; lower means stronger binding. A mean of the replicates is given; it leaves out those without a signal. An entry "no signal" has no value in the source: the pair was not observed among the diploids in any replicate. This suggests poor binding but is not conclusive. Empty control strains, which show no peptide, gave a signal in 18% of pairings with library AAYL50; the median was 4.19 and 95% of these signals were weaker than 2.99. No background was subtracted.

changes | mean log10 Kd (nM) | detected
K36P/S58T/Q96D | 1.01 | 3 of 3
S26T/A40C/R60D | no signal | 0 of 3
S38G/A40E/Q96H | no signal | 0 of 3
S25I/H98R/S103K | 0.71 | 3 of 3
K24H/S25W/T59I | 0.51 | 3 of 3
E32S/R34S/N37I | 3.66 | 3 of 3
S28D/E32H/E61S | 0.96 | 3 of 3
S26P/E61W/Q96E | 5.82 | 1 of 3
K24W/Q27Y/N37G | no signal | 0 of 3
S28T/R60N/Q96I | 3.73 | 1 of 3
S38M/H98Y/L100V | 4.36 | 3 of 3
E32V/A57T/Q95C | no signal | 0 of 3
S28T/N35T | 1.67 | 3 of 3
S25Y/Q96E/S103M | 0.38 | 3 of 3
S28L/A57M/H98L | 2.22 | 3 of 3
S33Y/R34M/S38E | 2.56 | 3 of 3
V29M/W56I/S62V | 4.22 | 3 of 3
S25F/L30Q/E32I | 0.63 | 3 of 3
R34F/N35R/L100Q | 2.36 | 3 of 3
S28Q/Y31I/H98I | 2.00 | 2 of 3
Y31F/K36I/Y97M | 4.55 | 3 of 3
S26H/L30M/E32K | 2.46 | 3 of 3
S33E/W56E/A57V | -0.01 | 3 of 3
V29H/S62Q | 1.24 | 3 of 3
N37G/V39G/P101Q | no signal | 0 of 3
K24V/S26D/T59A | 3.09 | 3 of 3
S25G/A57D/T59W | 3.68 | 1 of 3
K36V/A40G/Q95R | no signal | 0 of 3
S25I/E32N/N35T | -0.34 | 3 of 3
A40C/W56E/A57E | 0.98 | 3 of 3
K24M/V29N/Q96S | 0.88 | 3 of 3
S26M/S33E/T59A | 2.86 | 3 of 3
K24N/K36V/L102K | 4.00 | 1 of 3
Q27R/Q95F | 4.36 | 2 of 3
S25W/S58D/S103L | no signal | 0 of 3
R34L/K36A/S58Y | 0.86 | 3 of 3
S38V/S58C/S62H | no signal | 0 of 3
Q27C/R60M/H98Q | no signal | 0 of 3
A40S/A57E | 4.35 | 3 of 3
Y31Q/E32S/N37M | 1.75 | 3 of 3
N37W/S38F/E61A | 5.18 | 3 of 3
S28A/L30W/K36G | 1.44 | 3 of 3
T59M/E61H/R99T | 1.79 | 3 of 3
Y31N/A40V/S103R | no signal | 0 of 3
R99D/L100M/S103P | 3.67 | 1 of 3
S33A/A40N/R99I | no signal | 0 of 3
V29N/E61Y | 0.29 | 3 of 3
E32P/Q96N/S103D | 4.21 | 1 of 3
Y31M/N35H/A40K | no signal | 0 of 3
N37Y/T59D/S62P | 1.03 | 3 of 3
Q95D/Y97S | 2.40 | 2 of 3
S25L/V29L/Q95K | 0.18 | 3 of 3
S26C/A40V/L102W | 3.39 | 1 of 3
S25A/S62E/Q95M | no signal | 0 of 3
L30E/S62T | 0.75 | 3 of 3
S26K/Q96M/Y97N | 5.69 | 1 of 3
S38L/A57R/T59K | 3.08 | 1 of 3
S28F/N37P/L102M | 3.95 | 1 of 3
V39N/T59D/P101R | 5.04 | 3 of 3
S25R/Q27A/S58D | 3.09 | 3 of 3
Y31C/S33C/L100S | no signal | 0 of 3
K24V/Y31T/L100C | 1.34 | 3 of 3
V39L/S62N/L100V | 1.98 | 3 of 3
Y31E/W56H/T59P | 2.79 | 1 of 3
T59G/Q96I/S103F | no signal | 0 of 3

Picked from the list: the 7 lowest averages where every replicate gave a value.

changes	mean log10 Kd (nM)	detected
S25I/E32N/N35T	-0.34	3 of 3
S33E/W56E/A57V	-0.01	3 of 3
S25L/V29L/Q95K	0.18	3 of 3
V29N/E61Y	0.29	3 of 3
S25Y/Q96E/S103M	0.38	3 of 3
K24H/S25W/T59I	0.51	3 of 3
S25F/L30Q/E32I	0.63	3 of 3

Source: Engelhart et al. 2022 (doi:10.1038/s41597-022-01779-4), MIT Lincoln Laboratory and A-Alpha Bio; data file from the FLAb repository.